Results taken from ChEMBL document CHEMBL2176927, “Potent, selective, and orally bioavailable inhibitors of the mammalian target of rapamycin kinase domain exhibiting single agent antiproliferative activity” (J Med Chem, 2012).

Assay: Selectivity ratio of Ki for PI3Kdelta to Ki for mTOR

Ratio Ki: 130
Compound: CCNC(=O)Nc1ccc(-c2nc3c(c(N4CCOCC4)n2)CCN(c2ncccn2)C3)cc1
